Measured affinities in a library of Ab-14 light chain variants

Target: peptide PDVDLGDISGINAS, taken from heptad repeat 2 (HR2) of SARS-CoV-2 spike.

Parent: Ab-14, a human scFv built as VH, three GGGGS repeats, VL. Only the CDRs of the light chain vary.
VH: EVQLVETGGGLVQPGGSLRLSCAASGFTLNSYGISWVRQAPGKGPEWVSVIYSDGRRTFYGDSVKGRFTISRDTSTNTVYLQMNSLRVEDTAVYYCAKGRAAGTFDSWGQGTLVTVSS
VL: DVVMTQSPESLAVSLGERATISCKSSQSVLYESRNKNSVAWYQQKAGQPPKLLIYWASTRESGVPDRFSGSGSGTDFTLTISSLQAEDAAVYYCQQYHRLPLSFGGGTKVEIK

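The starting antibody came from a phage panning campaign against this peptide. The variants were designed computationally from a first round of random CDR variants and then made and measured. Several design methods are mixed in this list. The assay is AlphaSeq: two haploid yeast populations carry antibody and antigen on their surface. After mating in shaken culture at 30 °C for 16 h, diploids were selected and their barcode pairs sequenced. Each replicate has its own calibration line, from reference interactions of the BCL2 family. There are six technical replicates.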

The parent's light chain CDRs are KSSQSVLYESRNKNSVA, WASTRES, QQYHRLPLS; each variant's own CDRs replace them letter for letter. The read-out is the apparent dissociation constant on a log10 scale (nM): the lower, the stronger. Replicates are averaged; those with no signal do not enter the mean. Where no diploid with the target was found in any replicate, the entry reads "not detected": below detection, most likely a poor binder, though not proof of it. The authors' rule: three or more of the six replicates give a measured affinity, fewer mean a poor binder. Empty control strains, which show no peptide, gave a signal in 4% of pairings with all light chain designs; the median was 2.64 and 95% of these signals were weaker than 1.59. No background was subtracted. Also given: how often the same scFv was detected with the empty control strains. The parent sequence was in this pool as ten entries: three were never detected, three once, and four in most replicates, with averages from 0.34 to 2.37. Values of this round are not directly comparable with the first-round values of the same sequences.

CDR-L1	CDR-L2	CDR-L3	log10 Kd (nM), mean	seen in	signal with controls
KSSQSVLYESRNKNSVA	WASKRES	QQYHRLPLS	2.65	3/6	0/18
HITYGMQVAGRHSKSIA	QAETRAK	QQYDRLPLI	1.32	6/6	1/18
KSSQSVLYESANKNSVA	WASTRES	QQYHRLFLS	not detected	0/6	0/18
KLSMSYRFETEEKNSIA	ELVTRMR	QQYHRLPLS	2.18	4/6	0/18
IVSQLMLWGMKAKNSIA	EAELRLN	QQYDRLPLI	1.07	6/6	0/18
NISQSFMTESVWRNSVA	HQSTREQ	QQYDRLPLS	0.99	6/6	1/18
KISMTSENQLKQRNSVA	ELVTRVN	QQYNRLPLS	1.27	4/6	0/18
KLSQSFLYESRWKNSVA	GASTRES	QQYHRLPLS	0.42	6/6	0/18
KSSQSKLYESRNKNSVA	DASTRES	QQYHREPLS	0.78	6/6	1/18
HISMMVGTKGYCKNSVA	NAETRED	QQYHRLPLS	1.60	6/6	1/18
KSSTSVLYESGNKNSVA	HASTRED	QQYHRLPLS	0.72	6/6	2/18
SSSQSVLYESRNKNSVA	WGSTRES	QQYHRLPLS	2.12	6/6	0/18
GILSQMDGPTEYKENIA	NETERLR	QQYQRLPLT	1.13	6/6	0/18
KYSQLVGEESRNKNSVA	NASTREE	QQYHRLPLS	0.04	6/6	0/18
KVSVGGLYEQRQKNSVA	NASTRES	QQYHRLPLS	0.28	6/6	0/18
IVSQVMSWGIHAKNSIA	EAQTRLN	QQYDRLPLF	2.18	6/6	1/18
KSSQSVLYESANKNSLA	WASTRES	QQYWRLPLS	1.44	6/6	2/18
KSSQSVLYESRNKNSVA	YASTRES	QVYHRLQLS	not detected	0/6	0/18
MMSQVTGSGQRHRNNVA	QTSTREE	QQYDRLPLI	0.47	6/6	0/18
MISQLYNMGQFAINSVA	QASQRNE	QQYDRLPLI	1.17	6/6	0/18
KLTHPTDLWLNHVSSIA	DANISVE	QQYYQLPLT	0.60	6/6	1/18
KLSQSVLYESRNKNSVA	DASTRES	QQYHRLPLD	0.45	6/6	0/18
KSSQSVLYESRNKRSVA	WASTRES	QQYWRLPLS	1.88	5/6	0/18
MISQIYNMGQFAINSVA	QASVRNE	QQYDRLPLQ	1.40	6/6	0/18
QIDSFYQHGTDQNQAMA	DVTVRDQ	QQYSRLPLS	0.50	6/6	1/18
KLSWDDMSHFNTRSAVA	DMTMRVH	QQYNRLPLD	0.89	6/6	0/18
MITGSMEQEWSNKNPVA	SATDRAP	QSYFRLPLM	0.57	6/6	1/18

Continued, with the values leading:

log10 Kd (nM), mean	seen in	signal with controls	CDR-L1	CDR-L2	CDR-L3
0.00	6/6	3/18	HSSPSVEYESRNKNSVA	NASTREE	QDYHRLPLS
0.06	6/6	0/18	KLSQSVEVLSRNKNSVA	NASTREM	QQYHRLPLS
0.18	6/6	0/18	KCAQWVDYGSRNKNSVA	DASTRES	QQYHRLPLS
0.80	6/6	6/18	KLDQSWWGEWRNKNSVA	HASTREQ	QQYHRLPLS
-0.19	6/6	2/18	KFEQSWLYESRNGNSVA	QASTRSS	QQYHRLPLS
not detected	0/6	1/18	KSSQSCLYESRNKYSVA	WASTRES	QQYHRLPLS
-0.04	6/6	2/18	KMEQGVLYESRNKNSVA	GASTRES	QQYHRLPLS
0.24	6/6	1/18	RSSQSVLYESRNKNSVA	EASTRES	QQYHRLPLS
1.85	6/6	0/18	RLMGWGPDQIQHANSVA	DRDEVDM	QQYAHLPLS
0.66	5/6	0/18	KSSQSVLYESRNKGSVA	SASTRES	QQYHRLCLS
1.27	6/6	0/18	TIGQMFNGESRIRNSVA	QASTREE	QSYDRLPLS
1.89	6/6	0/18	KSSWSELFESRNKNSVA	DASTRSS	QQYHRLPLS
0.37	6/6	2/18	KSSQSVLYESTNKNSVA	NASTRED	QQYHRLPLS
not detected	0/6	0/18	KSSQSVLKESRNKESVA	WASTRES	QQYHRLPLC
2.41	4/6	2/18	MMSLCQNGYYQQNNSIA	DVNERAM	QQYGRLPLV
2.00	6/6	0/18	MLDNCQEGYYQKNNNVA	EMNARCY	QQYGRLPLM
0.15	6/6	0/18	KISISYLYESRNENSVA	EASTREQ	QQYHRLPLS
0.46	6/6	2/18	KLSGSTLYDSQNKNSVA	WASTRES	QQYHRLPLS
2.39	5/6	0/18	QVVDEQWAEGMNIQSIA	EGEVRKD	QQYNRLPLS
-0.14	6/6	1/18	KVSQSQCYEDRNKNNVA	NASDRMS	QQYHRLPLS
-0.49	6/6	0/18	KLQQSVLYESRNKNSVA	NASTREV	QQYHRLPLS
0.68	6/6	2/18	MAYGGDMMQSVARNSVA	NAETRAD	QDYHRLPLS
0.09	6/6	0/18	KISPRVLYESRNKNSVA	WASTRES	QQLHRPPLS
0.95	5/6	0/18	HMSALTLMGSRVRNSVA	QMTTREN	QQYDRLPLA
0.49	6/6	2/18	DFEQWMFSQNRDDNSIA	HADELVT	QQYAQLPLT
0.89	6/6	0/18	HISQMVMAGSCNKNNVA	QVSTREE	QQYHRLPLS
0.13	6/6	1/18	KASQSYHYESRNKNSVA	GASTRES	QQYHRLPLS
1.23	3/6	0/18	IVSQLMLWGMHAKNSIA	EAETRIN	QQYHRLPLF

Again, the first 4 entries without any signal:

| CDR-L1 | CDR-L2 | CDR-L3 | log10 Kd (nM), mean | seen in | signal with controls |
|---|---|---|---|---|---|
| KSSQSVLYESANKNSVA | WASTRES | QQYHRLFLS | not detected | 0/6 | 0/18 |
| KSSQSVLYESRNKNSVA | YASTRES | QVYHRLQLS | not detected | 0/6 | 0/18 |
| KSSQSCLYESRNKYSVA | WASTRES | QQYHRLPLS | not detected | 0/6 | 1/18 |
| KSSQSVLKESRNKESVA | WASTRES | QQYHRLPLC | not detected | 0/6 | 0/18 |

Values reported by Li et al. 2023, doi:10.1038/s41467-023-39022-2 (FLAb copy).